{"source": "PubChem BioAssay AID651568", "about": "(National Center for Advancing Translational Sciences (NCATS), 2012)", "note": "The entries are a selection whose mix differs from that of the whole data set. Results filed as inconclusive are left out. Active and inactive are the calls of the source. Calls come from the whole dose curve; as a rule, active = well fitted inhibition curve with a large enough effect; inconclusive = small, poorly fitted or top-dose-only effect; inactive = no such curve, though single readings can be large or run the other way.", "data": [{"test": "qHTS Assay to Find Inhibitors of Chronic Active B-Cell Receptor Signaling: Hit Validation in Renilla Reporter Assay; note: % is set by controls: 0 for no effect and ±100 for the full control effect; nearly all actives have a fitted effect of over 70% in size", "settings": "TMD8 IkB-Renilla luciferase reporter, NF-kB signaling; at 57.5 µM (top of the series)", "description": "Diffuse large B-cell lymphoma (DLBCL) is the most common category of non-Hodgkin lymphoma, with ~20,000 new cases per year in the United States. DLBCL should be regarded as a collection of different neoplasms. Microarray gene expression analysis has defined two principal types of DLBCL, named for their similarity to normal B cell stages or activation states: a germinal center B-cell (GCB) type, and an activated B-cell (ABC) type. In ABC-DLBCL, a constitutive high-level activity of the NF-kappaB family of transcription factors has been observed (1) and NF-kappaB target genes are more highly expressed in ABC primary tumors than in GCB tumors. Functional studies have shown a constitutive high-level activity of the IkappaB (inhibitor of kappa-B) kinase (IKK) complex. […] Further analysis of DLBCL primary tumors for NF-kappaB target gene expression imply that although CARD11 is required for constitutive IKK activity in all ABC-DLBCL lines, mutations in CARD11 may be the root cause of IKK activation only in lines or tumors with such mutations. In other words, CARD11 mutations may explain NF-kappaB activation in only 10% of ABC-DLBCL cases. […] This process has been termed 'chronic active BCR signaling' (CABS). […]", "values": [{"compound": "COc1ccc(C2=NCC(CBr)S2)cc1", "note": "(stereo unspecified)", "activity change, negative = inhibition": "inactive: 10.3%"}]}]}
